# Measured values published in PubChem BioAssay AID651550 (National Center for Advancing Translational Sciences (NCATS), 2012).
# This is a selection; strong and weak results do not stand in their true shares. Active and inactive are the calls of the source. No stated cut-off is given here; in the data, active means activity change below about -80%; inconclusive means mostly about -51% to -80%; inactive means weaker than that.
# Target: RAC-alpha serine/threonine-protein kinase (Homo sapiens) (UniProt P31749)
# Assay: HTS Assay for Inhibitors of Akt Phophorylation: Primary Screen
# Conditions: Neuro2A IGF-stimulated pAkt S473 HTRF, 20 min; at 50 µM; stronger effect = lower value
# Text: The serine/threonine protein kinase Akt (protein kinase B) regulates various cellular processes, including cell survival, growth, proliferation, migration and differentiation. It has been well established that Akt is activated through two essential steps involving membrane translocation and phosphorylation. Cytosolic Akt is recruited to the plasma membrane via the interaction between the PH domain and membrane PIP3 produced by phosphoinositide-3 kinase (PI3K) upon growth factor receptor stimulation. The membrane-Akt interaction results in conformational changes of Akt, enabling its activation through phosphorylation at T308 in the kinase domain and at S473 in the C-terminal hydrophobic motif by PDK1 and mTOR-rictor complex (mTORC2), respectively. […] These findings indicate that S473 phosphorylation, as an important modulator of Akt activation, may be a valuable drug target for cell growth, survival, proliferation and differentiation. These inhibitors also may have significant therapeutic potential with fewer side effects, especially for the conditions involving hyperactive Akt signaling, such as cancer and Alzheimer's disease.
# To this end, a miniaturized assay was developed to be screened against the Molecular Libraries Small Molecule Repository (MLSMR).
# NIH Chemical Genomics Center [NCGC]
# NIH Molecular Libraries Probe Centers Network [MLPCN]
# Assay Submitter (PI): Hee-Yong Kim, National Institute on Alcohol Abuse and Alcoholism
# 3 uL of Neuro2A cell suspension in DMEM containing 0.5% FBS and […] antibiotics mix was plated in a white solid bottom tissue culture-treated 1536-well plate (Greiner Bio-One, Monroe, NC) at 4,500 cells per well and incubated overnight at 37 deg C. 23 nL/well of compound solutions in DMSO was added with Pintool transfer (Kalypsis, San Diego, CA) at single […] final concentration. Then, the cells were stimulated with 1.5 uL of IGF (6 nM final concentration) and incubated at 37 deg C for 20 min. The reaction was terminated by the addition of 1.5 uL blocking reagent mixed with lysis buffer (1:25 correspondingly) provided with HTRF(R) Phospho Akt (Ser473) kit (Cisbio US, Bedford, MA), with following incubation for 50 min at ambient temperature. The detection HTRF conjugates from the kit were prepared according to the protocol, pre-mixed 1:1 prior to dispensing, and 2 uL/well was added with BioRAPTR FRD dispenser (Beckman Coulter). The assay plates were incubated for 24 hours at ambient temperature, and the HTRF fluorescence was measured using Envision plate reader (PerkinElmer) with excitation at 330nm, emission at 615nm (Eu(3)-Cryptate donor signal) and 665nm (d2 acceptor signal). The ratio of […] was calculated for each well.
# On the % scale 0 is the no-effect control and ±100 the full control effect.
row,SMILES,activity change
1,CCC(CO)(C(=O)OC1CN2CCC1CC2)c1ccccc1 (stereo not given),inactive: -2.03%
2,N/C(=N\O)c1c(N)no[n+]1[O-],inactive: 2.29%
3,N#CC1(Nc2ccccc2)CCN(CCc2ccccc2)CC1,inactive: 20.5%
4,O=C(NCC1(N2CCOCC2)CCCCC1)c1cc(=O)[nH]c2ccccc12,inactive: -1.47%
5,O=C(NCC1(N2CCOCC2)CCCCC1)c1cc2ccccc2o1,inactive: -1.13%
